Measured values published in US20180271891A1, “SELECTIVE TREATMENT OF PRMT5 DEPENDENT CANCER” (THE BROAD INSTITUTE INC., priority 2015, published 2018).

Experiments:
PRMT5 product sDMA = experiment: Western blot of sDMA after PRMT5i; conditions: low nM doses; 4 days; BFTC909 and NCIH2030 cells
[1] = PRMT5i stability in media (LCMS); conditions: tumor cell media, 37° C., 0 and 72 hours
[2] = test system: other histone methyltransferases; experiment: PRMT5i against other histone methyltransferases (data not shown); type: biochemical; conditions: at up to 50 μM
[3] = test system: type-1 PRMT (PRMT1, 3, 4, 6, 8) product aDMA; experiment: Western blot of aDMA after PRMT5i; conditions: even at 2.5 μM; 4 days

With O=C(NC[C@H](O)CN1CCc2ccccc2C1)c1cc(NC2COC2)ncn1 [EPZ015666] the sDMA (PRMT5 product sDMA) was “marked reduction”, the “stability in tissue culture media” value [1] was “stable over several days” and the “inhibition of other histone methyltransferases” value [2] was “without inhibition”. The aDMA production [3] was “no effect”.
